Experiment: Quantification of bivalirudin concentration in plasma of PCI patients
Format: in vivo
Conditions: both, human, iv
Procedure, shortened: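 Test compound given to 22 PCI patients as an IV bolus followed by continuous infusion. Plasma sampled at baseline, about 5 min post-bolus, 30 min into infusion (or at PCI end if earlier), and 5 min, 15 min and 2 h after infusion stopped. Levels measured by LC/MS/MS with a […] detection threshold. Data given as mean ± SD.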

Q: Which half-life does the source give for CC[C@H](C)[C@H](NC(=O)[C@H](CCC(=O)O)NC(=O)[C@H](CCC(=O)O)NC(=O)[C@H](Cc1ccccc1)NC(=O)[C@H](CC(=O)O)NC(=O)CNC(=O)[C@H](CC(N)=O)NC(=O)CNC(=O)CNC(=O)CNC(=O)CNC(=O)[C@@H]1CCCN1C(=O)[C@H](CCCNC(=N)N)NC(=O)[C@@H]1CCCN1C(=O)[C@H](N)Cc1ccccc1)C(=O)N1CCC[C@H]1C(=O)N[C@@H](CCC(=O)O)C(=O)N[C@@H](CCC(=O)O)C(=O)N[C@@H](Cc1ccc(O)cc1)C(=O)N[C@@H](CC(C)C)C(=O)O [bivalirudin] here?
A: 29.3 min

Reference: PMC3086141 (Circulation. Cardiovascular interventions, 2011)
